The numbers were not newly measured in patent US20120302748A1, “TREATMENT OR PROPHYLAXIS OF PROLIFERATIVE CONDITIONS” (THE UNIVERSITY COURT OF THE UNIVERSITY OF DUNDEE, priority 2009, published 2012), which cites them from elsewhere.

This data set deals with T1, CYP1B1 (Homo sapiens, UniProt Q16678).
T1 sequence (Q16678 1-543): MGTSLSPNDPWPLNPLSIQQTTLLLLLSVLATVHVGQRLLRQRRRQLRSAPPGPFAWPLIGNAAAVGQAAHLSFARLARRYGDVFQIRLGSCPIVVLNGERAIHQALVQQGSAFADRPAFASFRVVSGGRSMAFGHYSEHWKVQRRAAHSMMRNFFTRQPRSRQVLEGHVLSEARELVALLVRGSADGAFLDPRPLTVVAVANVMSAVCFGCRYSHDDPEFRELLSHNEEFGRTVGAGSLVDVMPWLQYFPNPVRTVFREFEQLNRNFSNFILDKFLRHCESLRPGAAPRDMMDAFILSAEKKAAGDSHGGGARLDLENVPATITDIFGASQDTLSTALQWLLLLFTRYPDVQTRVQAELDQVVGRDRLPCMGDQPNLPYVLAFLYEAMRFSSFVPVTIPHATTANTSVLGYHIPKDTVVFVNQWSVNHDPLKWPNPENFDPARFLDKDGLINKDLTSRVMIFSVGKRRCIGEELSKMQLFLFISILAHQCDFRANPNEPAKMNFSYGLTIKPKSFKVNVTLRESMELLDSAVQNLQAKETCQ
The conditions noted are these: cited from earlier work.

Broadly, the IC50 is the midpoint of a concentration-inhibition curve. Take tetramethoxystilbene: the 50% inhibitory concentration (IC50) is 6 nM.
